Measurements as given in US8785396B2, “Method and composition for treating migraines” (Mannkind Corporation, priority 2007, dated 2014).

Legend:
[1] = system: patients diagnosed with type 2 diabetes; test: Meal challenge study in type 2 diabetes patients: GLP-1 levels, insulin, glucose, gastric emptying; type: in vivo, human
Procedure: Period 2 was performed after completion of Period 1.

[2] = stated as general property; cited from earlier work
carotid vasodilation = settings: regardless of the route of administration, anesthetized dogs
[3] = Sumatriptan pharmacokinetics in female Sprague Dawley rats; settings: for Cmax: dose-normalized
[4] = Oxyntomodulin pharmacokinetics in rats after pulmonary insufflation of oxyntomodulin/FDKP powder; type: in vivo, rat

In the case of glucagon-like peptide 1 [GLP-1], the “GLP-1 levels in blood” value ([1]; 1.5 mg of GLP-1 in FDKP, inhaled, fed or fasted) is listed as “significantly higher levels of GLP-1” and the “half-life of GLP-1” value [2] is listed as 1 to 2 min.

With exenatide [reference compound] the “GLP-1 levels in blood” value ([1]; 10 μg exenatide by subcutaneous injection) was “no measurable levels of GLP-1” and the “gastric emptying versus controls” value ([1]; 10 μg exenatide subcutaneous) was “significant delay or inhibition in gastric emptying”.

For sumatriptan, the “Blood pressure and heart rate” value (carotid vasodilation) was “unaltered”, the t1/2 ([3]; Group 2, IV) was 30.4 min and the Cmax ([3]; Group 2, IV) was 26,719 ng/mL/mg. For the same substance, the Cmax ([3]; Group 3, SC) was 2309 ng/mL/mg and the tolerability ([3]; across all treatment groups, female Sprague Dawley rats) was “well tolerated”.

Work on oxyntomodulin yielded a maximal plasma concentration ([4]; rats receiving 1.5 mg) of 311 µg/mL and a maximal plasma concentration ([4]; rats receiving 3 mg) of 660 µg/mL.
